Laboratory results as given in ChEMBL document CHEMBL3102719, “Ligands of the neuropeptide Y Y2 receptor” (Bioorg Med Chem Lett, 2014).

Assays:
[1] = species on record: Homo sapiens; assay: Selectivity ratio of human NPYY1 receptor to NPYY2 receptor (unknown origin)
[2] = species on record: Homo sapiens; assay: Selectivity ratio of human NPYY4 receptor to NPYY2 receptor (unknown origin)
[3] = species on record: Homo sapiens; assay: Selectivity ratio of human NPYY5 receptor to NPYY2 receptor (unknown origin)

Measured: Selectivity ratio

CC(=O)N1CCc2ccc(N(C(=O)/C=C/c3cccc(C#N)c3)C3CCN(CCC4CCCC4)CC3)cc21
> 100: all assays above
